US9951046B2, “TRPA1 modulators” (Algomedix, Inc., priority 2014, dated 2018)

The chains behind the UniProt entries cited, without tags or fusion partners.
UniProt O75762, whole entry: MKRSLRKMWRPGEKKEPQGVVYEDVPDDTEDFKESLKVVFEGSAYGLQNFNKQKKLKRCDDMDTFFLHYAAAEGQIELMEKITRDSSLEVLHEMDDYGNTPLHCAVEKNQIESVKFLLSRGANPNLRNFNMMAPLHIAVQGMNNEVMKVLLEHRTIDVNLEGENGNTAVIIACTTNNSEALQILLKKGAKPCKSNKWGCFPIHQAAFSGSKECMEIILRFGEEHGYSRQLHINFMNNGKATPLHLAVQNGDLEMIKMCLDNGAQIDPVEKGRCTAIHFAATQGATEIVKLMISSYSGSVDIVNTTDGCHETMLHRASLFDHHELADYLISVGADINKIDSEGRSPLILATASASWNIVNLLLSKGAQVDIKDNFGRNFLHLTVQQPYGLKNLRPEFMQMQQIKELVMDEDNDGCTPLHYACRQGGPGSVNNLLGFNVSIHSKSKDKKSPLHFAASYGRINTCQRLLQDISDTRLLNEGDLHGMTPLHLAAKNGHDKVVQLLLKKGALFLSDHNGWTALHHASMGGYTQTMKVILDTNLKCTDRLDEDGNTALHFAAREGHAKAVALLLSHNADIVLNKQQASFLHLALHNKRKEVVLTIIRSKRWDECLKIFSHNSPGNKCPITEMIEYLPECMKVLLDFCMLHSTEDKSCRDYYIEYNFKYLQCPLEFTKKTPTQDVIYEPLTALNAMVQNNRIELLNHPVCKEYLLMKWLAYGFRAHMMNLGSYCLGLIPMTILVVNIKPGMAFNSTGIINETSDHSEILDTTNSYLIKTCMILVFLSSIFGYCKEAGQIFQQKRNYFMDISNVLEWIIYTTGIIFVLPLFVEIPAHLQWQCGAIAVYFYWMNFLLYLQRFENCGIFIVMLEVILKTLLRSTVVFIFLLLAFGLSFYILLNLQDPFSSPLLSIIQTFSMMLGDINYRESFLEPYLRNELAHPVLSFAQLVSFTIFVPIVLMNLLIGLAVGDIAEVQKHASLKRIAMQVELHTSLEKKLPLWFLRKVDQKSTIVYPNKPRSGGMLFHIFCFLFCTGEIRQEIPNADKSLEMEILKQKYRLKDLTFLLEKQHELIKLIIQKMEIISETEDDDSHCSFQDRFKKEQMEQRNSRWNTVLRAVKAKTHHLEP

Target: human TRPA1 (Homo sapiens, UniProt O75762)
Test: Cell-based functional intracellular calcium ([Ca2+]i) assay, Fluo-4/Fluo-8, FlexStation, challenge with reference TRPA1 agonist (FFA, AITC or 4-HNE)
Details: read-out: human TRPA1-HEK Activity; HEK293 cells expressing human TRPA1; IC50 class after addition of reference TRPA1 agonist (FFA, AITC or 4-HNE)

Row | SMILES | IC50 [µM]
1 | O=C(c1cc(-c2cccnc2)n(-c2ccc(F)c(C(F)(F)F)c2)n1)N1CCC2(CC1)C(=O)NCN2c1ccc(F)cc1 | 0.001 to 5
2 | O=C(c1cc(-c2cccnc2)n(-c2cc(F)c(F)c(F)c2)n1)N1CCC(n2c(=S)[nH]c3ccc(F)c(F)c32)CC1 | 0.001 to 5
